Laboratory results: US9018371B2, “Adenosine derivatives, method for the synthesis thereof, and the pharmaceutical compositions for the prevention and treatment of the inflammatory diseases containing the same as an active ingredient” (FM Therapeutics Co., Ltd., priority 2007, dated 2015)

The chains behind the UniProt entries cited, without tags or fusion partners.
UniProt P30542, whole entry: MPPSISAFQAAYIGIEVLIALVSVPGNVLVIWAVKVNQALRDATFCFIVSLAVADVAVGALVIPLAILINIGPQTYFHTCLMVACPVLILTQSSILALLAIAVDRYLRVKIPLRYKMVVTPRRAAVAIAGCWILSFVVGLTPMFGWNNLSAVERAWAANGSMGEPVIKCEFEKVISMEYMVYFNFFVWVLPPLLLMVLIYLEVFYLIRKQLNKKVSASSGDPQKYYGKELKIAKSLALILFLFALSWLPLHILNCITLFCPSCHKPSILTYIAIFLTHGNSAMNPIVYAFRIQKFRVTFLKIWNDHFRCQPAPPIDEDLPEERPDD

Tests used:
[1] = biological target: human A1 adenosine receptor (hA1) (Homo sapiens (Human), UniProt P30542); experiment: Binding affinity for human A1 adenosine receptor ([3H]CCPA, CHO cells); settings: nM ± SEM
[2] = biological target: human A2A adenosine receptor (hA2A) (Homo sapiens (Human), UniProt P29274); experiment: Binding affinity for human A2A adenosine receptor ([3H]CGS-21680, HEK 293 cell); settings: nM ± SEM

Ki [1]: 530 ± 97 nM
Ki [2]: 230 ± 65 nM
SMILES: OC1CS[C@@H](n2cnc3c(NCc4cccc(I)c4)ncnc32)C1O (stereo in doubt) [Example 14, (2R,3R,4S)-2-(6-(3-Iodobenzylamino)-9H-purin-9-yl)tetrahydrothiophen-3,4-diol]
